From article PMC9920749, “In Vitro and In Silico Studies of Neolignans from Magnolia grandiflora L. Seeds against Human Cannabinoids and Opioid Receptors” (Molecules, 2023) come the findings set out here.

By UniProt entry, the sequences of proteins in these tests, tags left out.
UniProt P21554, whole entry: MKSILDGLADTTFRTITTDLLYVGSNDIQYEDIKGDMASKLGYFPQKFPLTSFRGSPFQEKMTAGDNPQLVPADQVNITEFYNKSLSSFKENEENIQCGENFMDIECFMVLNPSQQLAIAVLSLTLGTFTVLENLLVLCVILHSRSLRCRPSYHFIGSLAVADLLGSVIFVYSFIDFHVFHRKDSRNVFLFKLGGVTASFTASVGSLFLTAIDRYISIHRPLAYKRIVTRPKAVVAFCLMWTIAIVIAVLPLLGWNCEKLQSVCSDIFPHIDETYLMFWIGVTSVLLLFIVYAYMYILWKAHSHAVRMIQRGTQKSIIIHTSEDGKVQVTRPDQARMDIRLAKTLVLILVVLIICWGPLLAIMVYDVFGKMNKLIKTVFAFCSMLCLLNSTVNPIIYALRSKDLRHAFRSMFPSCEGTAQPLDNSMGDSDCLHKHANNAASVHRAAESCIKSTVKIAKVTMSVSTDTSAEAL

In this assay the target is T1, CB1R (Homo sapiens, UniProt P21554).
T1 construct: expressed in transfected cells; host or cells: HEK293 (ATCC), stably transfected; membrane preparation
The assay is described as follows: Competitive radioligand binding assay, [3H]-CP55,940, HEK293 membranes. Conditions: 10 μM purified compounds and 2 + 3. The procedure: HEK293 cells stably transfected with δ, κ, and μ opioid subtypes were a generous gift from Roth Laboratories (University of North Carolina at Chapel Hill, NC, USA). Opioid cells were maintained as previously described. Membranes were made by washing the cells with cold PBS. The cells were then scraped in cold 50 mM Tris-HCl, pH 7.4 buffer. The solution was centrifuged at 5200× g for 10 min at 4 °C. Next, the supernatant was discarded, and the pellet was washed with more Tris-HCl buffer, homogenized via Sonic Dismembrator (Fisher Scientific, Pittsburgh, PA, USA) and then centrifuged at 24,000× g for 40 min at 4 °C. […] The total membrane protein concentration was measured using a Pierce BCA Protein Assay Kit (Thermo Scientific, Rockford, IL, USA) as per the manufacturer’s protocol.
Cannabinoid and opioid competitive radioligand binding assays were performed as previously described. […] Percent displacements were evaluated for all the cannabinoid and opioid subtypes with a triplicate of a fixed concentration (10 µg/mL for extracts and fractions, 10 μM for purified compounds). […] Radiodetection was measured with 50 µL (cannabinoid) or 25 µL (opioid) MicroScint^TM-20 on a TopCount NXT HTS Microplate Scintillation Counter (PerkinElmer, Waltham, MA, USA). The IC50 and Ki values were calculated by a non-linear curve fit model using GraphPad Prizm 5.0 software (GraphPad Software Inc., San Diego, CA, USA). […]

With `C=CCc1ccc(O)c(-c2ccc(OC)c(CC=C)c2)c1` [Compound 1, 4-O-methylhonokiol], the “Cannabinoid Receptors (% Displacement) CB1” value amounted to 91.3%.
